Molecules are shown by their SMILES.

One molecule from US20240285644A1, “ASSESSING AND TREATING PROSTATE CANCER” (Mayo Foundation for Medical Education and Research, priority 2021, published 2024) can be followed below.

In this test the test system is androgen receptor (AR). As to the kind of experiment: Androgen receptor level in LNCaP cells (Western blot). It is filed as cell-based. (Immunoblotting shows a protein as a band on a membrane.)

`CNC(=O)c1ccc(N2C(=S)N(c3ccc(C#N)c(C(F)(F)F)c3)C(=O)C2(C)C)cc1F` [enzalutamide]: the “AR level in LNCaP cells” value is recorded as “downregulates AR”.
